{
  "source": "patent US12365761B2",
  "about": "“Biodegradable ultra-pH sensitive polymers” (priority 2019, dated 2025)",
  "key": {"[1]": {"assay": "body weight during IL-2 therapy"}, "[2]": {"tested_on": "HEK-Blue™ IL-2 reporter cells", "assay": "IL-2 function in HEK-Blue IL-2 reporter cells (SEAP)", "type": "cell-based", "conditions": "24 h incubation, SEAP at 630 nm", "protocol": "The IL-2 function was investigated using HEK-Blue™ IL-2 reporter cells, which are designed to monitor the activation of the JAK-STAT pathway induced by IL-2. Briefly, cells were rinsed by pre-warmed PBS and detached from the flask to prepare a cell suspension at ˜280,000 cells/mL. […] The samples were incubated with 180 μL of cell suspension per well at 37° C. in a CO2 incubator (IL-2 concentration: 200, 50, 10, 2, 0.5, 0.2, 0.05, 0.01 ng/mL; […] The plate was incubated at 37° C. incubator for 1 h and then SEAP levels were determined using a spectrophotometer at 630 nm."}},
  "data": [
    {"substance": "free IL-2: human recombinant IL-2 protein, a T cell growth factor", "values": [
      {"measurement": "body weight change", "setting": "[1]; i.t. injection day 1 and 5, within 11 days", "value": "slightly increased"},
      {"measurement": "body weight change", "setting": "[1]; i.v. injection day 1 and 5, within 11 days", "value": "some temporal loss"},
      {"measurement": "EC50 of IL-2 function", "setting": "[2]", "value": 0.015, "unit": "µg/mL"}
    ]}
  ]
}
